Measurements from patent publication US9682960B2 (priority 2013, dated 2017).
Several values for one entry are separate records, joined by “and”; a condition that tells them apart may be missing. Equal entries are not always repeated. Where two headings read alike, the source gives them in different places.

Tested on: castrated (CX) immature male rats bearing a DHT implant
Settings: for CX + DHT Antagonistic activity % Inhibition Bulbo / CX + DHT Antagonistic activity % Inhibition SV / CX + DHT Antagonistic activity % Inhibition Prostate: 7 days; for CX + DHT Antagonistic activity % Inhibition Bulbo: bulbocavernosus muscles weight; for CX + DHT Antagonistic activity % Inhibition SV: seminal vesicles weight; for CX + DHT Antagonistic activity % Inhibition Prostate: ventral prostate weight

## CC(O)(CS(=O)(=O)c1ccc(F)cc1)C(=O)Nc1ccc(C#N)c(C(F)(F)F)c1 (stereo not shown) [CAS, bicalutamide, reference compound]
0.5 mg/rat/po
  CX + DHT Antagonistic activity % Inhibition Bulbo: 74 ± 2 (n = 23) %
  CX + DHT Antagonistic activity % Inhibition SV: 89 ± 1 (n = 26) %
  CX + DHT Antagonistic activity % Inhibition Prostate: 53 ± 2 (n = 26) %

## CC(C)NCc1ccc(OCCCN2C(=S)N(c3ccc(C#N)c(C(F)(F)F)c3)C(=O)C2(C)C)cc1 [EM-7105, reference compound]
0.1 mg/rat/po
  CX + DHT Antagonistic activity % Inhibition Prostate: 20 ± 7%
0.5 mg/rat/po
  CX + DHT Antagonistic activity % Inhibition Prostate: 51%

## CCNCc1ccc(OCCCN2C(=S)N(c3ccc(C#N)c(C(F)(F)F)c3)C(=O)C2(C)C)cc1 [EM-7148, reference compound]
0.5 mg/rat, s.c. (subcutaneous)
  CX + DHT Antagonistic activity % Inhibition Ventral prostate: 58% and 58 (s.c.) %

## CC1(C)C(=O)N(c2ccc(C#N)c(C(F)(F)F)c2)C(=S)N1CCCOc1ccc(CN2CCC(O)C2)cc1 (stereo not shown) [EM-7365, reference compound]
0.5 mg/rat/po
  CX + DHT Antagonistic activity % Inhibition Prostate: 22%

## Cc1c(N2C(=O)C(C)(C)N(CCCOc3ccc(-c4cccnc4)cc3)C2=S)ccc(C#N)c1Cl [EM-8656]
0.5 mg/rat/po
  CX + DHT Antagonistic activity % Inhibition Bulbo: 0%
  CX + DHT Antagonistic activity % Inhibition SV: 0%
  CX + DHT Antagonistic activity % Inhibition Prostate: 17%

## Cc1c(N2C(=O)C(C)(C)N(CCCOc3ccc(-c4ccncc4)cc3)C2=S)ccc(C#N)c1Cl [EM-8664]
0.5 mg/rat/po
  CX + DHT Antagonistic activity % Inhibition Bulbo: −150%
  CX + DHT Antagonistic activity % Inhibition SV: −25%
  CX + DHT Antagonistic activity % Inhibition Prostate: 36%

## Cc1c(N2C(=O)C(C)(C)N(CCCOc3ccc(-c4cncnc4)cc3)C2=S)ccc(C#N)c1Cl [EM-8685]
0.5 mg/rat/po
  CX + DHT Antagonistic activity % Inhibition Bulbo: −110%
  CX + DHT Antagonistic activity % Inhibition SV: −18%
  CX + DHT Antagonistic activity % Inhibition Prostate: 15%

## Cc1c(N2C(=O)C(C)(C)N(CCCOc3ccc(-c4ccncc4)cc3)C2=S)ccc(C#N)c1C(F)(F)F [EM-8691]
0.5 mg/rat/po
  CX + DHT Antagonistic activity % Inhibition Bulbo: −115%
  CX + DHT Antagonistic activity % Inhibition SV: 14%
  CX + DHT Antagonistic activity % Inhibition Prostate: 21%

## Cc1c(N2C(=O)C(C)(C)N(CCCOc3ccc(-c4ccncc4)cc3F)C2=S)ccc(C#N)c1Cl [EM-8723]
0.5 mg/rat/po
  CX + DHT Antagonistic activity % Inhibition Bulbo: −57%
  CX + DHT Antagonistic activity % Inhibition SV: −10%
  CX + DHT Antagonistic activity % Inhibition Prostate: 35%

## Cc1c(N2C(=O)C(C)(C)N(CCCOc3ccc4ncccc4c3)C2=S)ccc(C#N)c1Cl [EM-8728]
0.5 mg/rat/po
  CX + DHT Antagonistic activity % Inhibition Bulbo: 0%
  CX + DHT Antagonistic activity % Inhibition SV: 0%
  CX + DHT Antagonistic activity % Inhibition Prostate: 11%

## Cc1c(N2C(=O)C(C)(C)N(CCCOc3ccc4cccnc4c3)C2=S)ccc(C#N)c1Cl [EM-8730]
0.5 mg/rat/po
  CX + DHT Antagonistic activity % Inhibition Bulbo: 0%
  CX + DHT Antagonistic activity % Inhibition SV: 0%
  CX + DHT Antagonistic activity % Inhibition Prostate: 0%

## Cc1c(N2C(=O)C(C)(C)N(CCCOc3ccc(-c4ccncc4)cc3C(F)(F)F)C2=S)ccc(C#N)c1C(F)(F)F [EM-8772]
0.5 mg/rat/po
  CX + DHT Antagonistic activity % Inhibition Bulbo: −79%
  CX + DHT Antagonistic activity % Inhibition SV: 19%
  CX + DHT Antagonistic activity % Inhibition Prostate: 52%

## Cc1c(N2C(=O)C(C)(C)N(CCCOc3ccc(-c4ccncc4)cc3C(F)(F)F)C2=S)ccc(C#N)c1Cl [EM-8773]
0.5 mg/rat/po
  CX + DHT Antagonistic activity % Inhibition Bulbo: −91%
  CX + DHT Antagonistic activity % Inhibition SV: 16%
  CX + DHT Antagonistic activity % Inhibition Prostate: 61%

## Cc1c(N2C(=O)N(CCCOc3ccc4cccnc4c3)C(C)(C)C2=O)ccc(C#N)c1Cl [EM-8786]
0.5 mg/rat/po
  CX + DHT Antagonistic activity % Inhibition Bulbo: −265%
  CX + DHT Antagonistic activity % Inhibition SV: 35%
  CX + DHT Antagonistic activity % Inhibition Prostate: 51%

## Cc1c(N2C(=O)C(C)(C)N(CCCOc3ccc(-c4ccncc4)cc3F)C2=S)ccc(C#N)c1C(F)(F)F [EM-8793]
0.5 mg/rat/po
  CX + DHT Antagonistic activity % Inhibition Bulbo: −46%
  CX + DHT Antagonistic activity % Inhibition SV: −1%
  CX + DHT Antagonistic activity % Inhibition Prostate: 35%

## Cc1c(N2C(=O)C(C)(C)N(CCCOc3ccc(-c4ccncc4)c(F)c3)C2=S)ccc(C#N)c1Cl [EM-8796]
0.5 mg/rat/po
  CX + DHT Antagonistic activity % Inhibition Bulbo: −132%
  CX + DHT Antagonistic activity % Inhibition SV: −119%
  CX + DHT Antagonistic activity % Inhibition Prostate: 23%

## Cc1c(N2C(=O)C(C)(C)N(CCCOc3ccc(-c4ccncc4)c(F)c3)C2=S)ccc(C#N)c1C(F)(F)F [EM-8797]
0.5 mg/rat/po
  CX + DHT Antagonistic activity % Inhibition Bulbo: −94%
  CX + DHT Antagonistic activity % Inhibition SV: −90%
  CX + DHT Antagonistic activity % Inhibition Prostate: 28%

## Cc1c(N2C(=O)C(C)(C)N(CCCOc3ccc(-c4ccncc4)cc3Cl)C2=S)ccc(C#N)c1C(F)(F)F [EM-8798]
0.5 mg/rat/po
  CX + DHT Antagonistic activity % Inhibition Bulbo: 0%
  CX + DHT Antagonistic activity % Inhibition SV: 0%
  CX + DHT Antagonistic activity % Inhibition Prostate: 16%

## Cc1c(N2C(=O)C(C)(C)N(CCCOc3ccc(-c4ccncc4)cc3Cl)C2=S)ccc(C#N)c1Cl [EM-8799]
0.5 mg/rat/po
  CX + DHT Antagonistic activity % Inhibition Bulbo: 0%
  CX + DHT Antagonistic activity % Inhibition SV: 0%
  CX + DHT Antagonistic activity % Inhibition Prostate: 0%

## Cc1c(N2C(=O)C(C)(C)N(CCCOc3ccc(-c4ccncc4)cn3)C2=S)ccc(C#N)c1Cl [EM-8815]
0.2 mg/rat po
  CX + DHT Antagonistic activity % Inhibition Bulbo: −126 (0.2 mg/rat) %
  CX + DHT Antagonistic activity % Inhibition SV: −24 (0.2 mg/rat) %
  CX + DHT Antagonistic activity % Inhibition Prostate: 8 (0.2 mg/rat) %

## Cc1c(N2C(=O)C(C)(C)N(CCCOc3ccc(-c4ccncc4)c(C(F)(F)F)c3)C2=S)ccc(C#N)c1Cl [EM-8820]
0.5 mg/rat/po
  CX + DHT Antagonistic activity % Inhibition Bulbo: −146%
  CX + DHT Antagonistic activity % Inhibition SV: 1%
  CX + DHT Antagonistic activity % Inhibition Prostate: 26%

## Cc1c(N2C(=O)C(C)(C)N(CCCOc3ccc(-c4ccncc4)c(C(F)(F)F)c3)C2=S)ccc(C#N)c1C(F)(F)F [EM-8821]
0.5 mg/rat/po
  CX + DHT Antagonistic activity % Inhibition Bulbo: −134%
  CX + DHT Antagonistic activity % Inhibition SV: −5%
  CX + DHT Antagonistic activity % Inhibition Prostate: 34%

## Cc1c(N2C(=O)C(C)(C)N(CCCOc3ccc(-c4ccncc4)nc3)C2=S)ccc(C#N)c1Cl [EM-8827]
0.1 mg/rat po
  CX + DHT Antagonistic activity % Inhibition Bulbo: −108 (0.1 mg/rat) %
  CX + DHT Antagonistic activity % Inhibition SV: 1 (0.1 mg/rat) %
0.1 mg/rat/po
  CX + DHT Antagonistic activity % Inhibition Prostate: 3 (0.1 mg/rat) %

## Cc1c(N2C(=O)C(C)(C)N(CCCOc3ccc(Oc4ccc(Cl)nc4)nc3)C2=S)ccc(C#N)c1Cl [EM-8828]
0.5 mg/rat/po
  CX + DHT Antagonistic activity % Inhibition Bulbo: −137%
  CX + DHT Antagonistic activity % Inhibition SV: −26%
  CX + DHT Antagonistic activity % Inhibition Prostate: 31%

## CC1(C)C(=O)N(c2ccc(C#N)c(C(F)(F)F)c2)C(=S)N1CCCOc1ccc(-c2cccnc2)cc1 [EM-8840]
0.5 mg/rat/po
  CX + DHT Antagonistic activity % Inhibition Bulbo: 42%
  CX + DHT Antagonistic activity % Inhibition SV: 80%
  CX + DHT Antagonistic activity % Inhibition Prostate: 62%

## CC1(C)C(=O)N(c2ccc(C#N)c(C(F)(F)F)c2)C(=S)N1CCCOc1ccc(-c2ccncc2)cc1 [EM-8841]
0.5 mg/rat/po
  CX + DHT Antagonistic activity % Inhibition Bulbo: 65%
  CX + DHT Antagonistic activity % Inhibition SV: 85%
  CX + DHT Antagonistic activity % Inhibition Prostate: 57%

## CC1(C)C(=O)N(c2ccc(C#N)c(C(F)(F)F)c2)C(=S)N1CCCOc1ccc(-c2ccncc2)c(F)c1 [EM-8851]
0.5 mg/rat/po
  CX + DHT Antagonistic activity % Inhibition Bulbo: 91%
  CX + DHT Antagonistic activity % Inhibition SV: 86%
  CX + DHT Antagonistic activity % Inhibition Prostate: 62%

## Cc1c(N2C(=O)C(C)(C)N(CCCOc3ccc4cnccc4c3)C2=S)ccc(C#N)c1Cl [EM-8869]
0.5 mg/rat/po
  CX + DHT Antagonistic activity % Inhibition Bulbo: 0%
  CX + DHT Antagonistic activity % Inhibition SV: 3%
  CX + DHT Antagonistic activity % Inhibition Prostate: 1%

## CC1(C)C(=O)N(c2ccc(C#N)c(C(F)(F)F)c2)C(=S)N1CCCOc1cccc(-c2ccncc2)c1 [EM-8871]
0.5 mg/rat/po
  CX + DHT Antagonistic activity % Inhibition Bulbo: 66%
  CX + DHT Antagonistic activity % Inhibition SV: 70%
  CX + DHT Antagonistic activity % Inhibition Prostate: 41%

## CC1(C)C(=O)N(c2ccc(C#N)c(C(F)(F)F)c2)C(=S)N1CCCOc1ccc(-c2ccncc2)cc1F [EM-8872]
0.5 mg/rat/po
  CX + DHT Antagonistic activity % Inhibition Bulbo: 62%
  CX + DHT Antagonistic activity % Inhibition SV: 79%
  CX + DHT Antagonistic activity % Inhibition Prostate: 56%

## Cc1c(N2C(=O)C(C)(C)N(CCCOc3ccc(-c4ccncc4)c(Cl)c3)C2=S)ccc(C#N)c1Cl [EM-8887]
0.5 mg/rat/po
  CX + DHT Antagonistic activity % Inhibition Bulbo: −134%
  CX + DHT Antagonistic activity % Inhibition SV: −64%
  CX + DHT Antagonistic activity % Inhibition Prostate: 32%

## CC1(C)C(=O)N(c2ccc(C#N)c(C(F)(F)F)c2)C(=S)N1CCCOc1ccc(-c2ccncc2)c(Cl)c1 [EM-8888]
0.5 mg/rat/po
  CX + DHT Antagonistic activity % Inhibition Bulbo: 57%
  CX + DHT Antagonistic activity % Inhibition SV: 81%
  CX + DHT Antagonistic activity % Inhibition Prostate: 57%

## CC1(C)C(=O)N(c2ccc(C#N)c(C(F)(F)F)c2)C(=S)N1CCCOc1ccc(-c2ccncc2)c(C(F)(F)F)c1 [EM-8890]
0.5 mg/rat/po
  CX + DHT Antagonistic activity % Inhibition Bulbo: 25%
  CX + DHT Antagonistic activity % Inhibition SV: 86%
  CX + DHT Antagonistic activity % Inhibition Prostate: 50%

## CC1(C)C(=O)N(c2ccc(C#N)c(C(F)(F)F)c2)C(=S)N1CCCOc1ccc(-c2ccncc2)cc1C(F)(F)F [EM-8900]
0.5 mg/rat/po
  CX + DHT Antagonistic activity % Inhibition Bulbo: 29%
  CX + DHT Antagonistic activity % Inhibition SV: 79%
  CX + DHT Antagonistic activity % Inhibition Prostate: 54%

## Cc1ccc(-c2ccc(OCCCN3C(=S)N(c4ccc(C#N)c(C(F)(F)F)c4)C(=O)C3(C)C)cc2)cn1 [EM-8908]
0.5 mg/rat/po
  CX + DHT Antagonistic activity % Inhibition Bulbo: 48%
  CX + DHT Antagonistic activity % Inhibition SV: 73%
  CX + DHT Antagonistic activity % Inhibition Prostate: 55%

## Cc1c(N2C(=O)C(C)(C)N(CCCOc3ccc(-c4cc[n+]([O-])cc4)cc3)C2=S)ccc(C#N)c1Cl [EM-8913]
0.5 mg/rat/po
  CX + DHT Antagonistic activity % Inhibition Bulbo: −138%
  CX + DHT Antagonistic activity % Inhibition SV: −59%
  CX + DHT Antagonistic activity % Inhibition Prostate: 29%

## Cc1c(N2C(=O)C(C)(C)N(CCCOc3ccc(-c4ccnc(F)c4)cc3)C2=S)ccc(C#N)c1Cl [EM-8922]
0.5 mg/rat/po
  CX + DHT Antagonistic activity % Inhibition Bulbo: 0%
  CX + DHT Antagonistic activity % Inhibition SV: 0%
  CX + DHT Antagonistic activity % Inhibition Prostate: 20%

## CC1(C)C(=O)N(c2ccc(C#N)c(C(F)(F)F)c2)C(=S)N1CCCOc1ccc(-c2ccnc(F)c2)cc1 [EM-8923]
0.5 mg/rat/po
  CX + DHT Antagonistic activity % Inhibition Bulbo: 61%
  CX + DHT Antagonistic activity % Inhibition SV: 83%
  CX + DHT Antagonistic activity % Inhibition Prostate: 50%

## CC1(C)C(=O)N(c2ccc(C#N)c(C(F)(F)F)c2)C(=S)N1CCCOc1ccc(-c2cc[n+]([O-])cc2)cc1 [EM-8929]
0.5 mg/rat/po
  CX + DHT Antagonistic activity % Inhibition Bulbo: 43%
  CX + DHT Antagonistic activity % Inhibition SV: 88%
  CX + DHT Antagonistic activity % Inhibition Prostate: 59%
